Values of other authors as cited in US6605644B2, “Analgesic regimen” (Ortho-McNeil Pharmaceutical, Inc., priority 1999, dated 2003).

Amino acid sequences for entries named in this document (tags omitted).
UniProt P35372, whole entry: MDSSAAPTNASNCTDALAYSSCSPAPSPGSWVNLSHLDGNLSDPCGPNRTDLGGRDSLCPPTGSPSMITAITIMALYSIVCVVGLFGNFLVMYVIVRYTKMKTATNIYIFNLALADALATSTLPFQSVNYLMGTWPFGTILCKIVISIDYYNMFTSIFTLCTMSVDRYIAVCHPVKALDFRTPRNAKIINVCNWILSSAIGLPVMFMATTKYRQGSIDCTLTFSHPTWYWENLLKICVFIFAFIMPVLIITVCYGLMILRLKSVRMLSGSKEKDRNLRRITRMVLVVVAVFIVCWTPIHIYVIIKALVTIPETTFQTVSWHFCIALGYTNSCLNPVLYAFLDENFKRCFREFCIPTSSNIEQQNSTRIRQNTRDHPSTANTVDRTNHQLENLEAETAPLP

Molecular target: μ opioid receptors (Homo sapiens, UniProt P35372)
Details: cited from earlier work

SMILES: CN(C)C[C@H]1CCCC[C@]1(O)c1cccc(O)c1 [mono-O-desmethyl tramadol, mono-O-desmethyltramadol]
- binding affinity to μ receptors: higher affinity binding
